Test results as given in patent US20090104711A1, “FLUORESCENT MARKER COMPRISING DOUBLE BOND ESTER GROUP AND METHOD FOR MARKING AND DETECTING THE SAME” (priority 2005, published 2009).

Experiments:
[1] = Solubility in kerosene oil, unsaturated vs saturated esters; settings: for Solubility (%): in kerosene oil
[2] = Example 6 vs C18 saturated alkyl-chain ester (fluorescein distearate), in petroleum, FIG. 4

| Substance | Solubility (%) [1] | Rate of increase in solubility of unsaturated esters (%) ([1]; unsaturated ester vs corresponding saturated C18 stearate, kerosene oil) | comparison of solubility [2] |
| --- | --- | --- | --- |
| fluorescein dioleate [Example 6] | More than 14.7% | More than 150% | significant difference in solubility |
| resorufin dioleate [Example 9] | More than 14.7% | – | – |
